Converted amounts (≈) assume the structure as drawn.
Assays:
M. luteus 10240 = assay: Growth inhibition assay (microdilution MIC); format: cell-based, Micrococcus luteus; settings: for fold increase in activity against M. luteus versus unmodified peptide: penetratin coupled via thioether bridge
Procedure: (§1) The minimum inhibitory concentrations (MIC) of the antimicrobial peptides and peptide derivatives were determined in microdilution assays. These used a continuous peptide dilution in sterile flat-bottomed 96-well microtiter plates (polystyrene, Greiner Bio-One GmbH, Frickenhausen, Germany) and a total volume of 100 μL per well. The aqueous peptide or peptidomimetic solutions were diluted with 1% TSB water, to obtain a final concentration of 256 μg/mL. 50 μL of the peptide or peptidomimetic solution was pipetted into the first well of each series and stirred. From this solution, 50 μL was transferred to the second well, stirred and again 50 μL was transferred to the next well, and so on. A double dilution series is obtained, beginning at 256 μg/mL in the first well to 125 ng/mL in the twelfth well. The bacteria, e.g. E. coli BL21 A1, were cultured overnight at 37° C. in nutrient broth (NB, Carl Roth GmbH+Co. KG, Karlsruhe, Germany). 50 μL of a 5×10^6 bacteria/mL suspension in 1% TSB was added to each well of the microtiter plate and thus a final concentration of the peptides or peptidomimetics from 128 μg/mL (well 1) to 62.5 ng/mL (well 12) was established in each series. The plates were incubated at 37° C. for 20 h and then the absorption was measured at 595 nm with a TECAN microtiter plate spectrophotometer (Tecan Trading AG, Mannedorf, Switzerland). The MIC values of all peptides and peptidomimetics were determined in triplicate. Sterile water was used as negative control. The MIC value represents the lowest peptide concentration at which no bacterial growth is observed after an incubation time of 20 h at 37° C.
(§2) The MIC values of the peptides and peptide derivatives against Escherichia coli BL21 A1 and Micrococcus luteus ATCC 10240 are given in Table 7.

E. coli BL21 A1 = format: cell-based, Escherichia coli; settings: BL21, 20 h
Procedure: as §1, §2

SMILES | MIC M. luteus 10240 (M. luteus 10240; 1% TSB, 20 h at 37° C.) [µg/mL] | fold increase in activity against M. luteus versus unmodified peptide (M. luteus 10240) [fold] | MIC E. coli BL21 A1 (E. coli BL21 A1) [µg/mL] | MIC M. luteus 10240 (M. luteus 10240; 10240, 20 h) [µg/mL]
CC[C@H](C)[C@H](NC(=O)[C@H](CCCCN)NC(=O)[C@@H](NC(=O)[C@H](CCC(N)=O)NC(=O)[C@@H](N)CCCNC(=N)N)[C@@H](C)CC)C(=O)N[C@@H](Cc1c[nH]c2ccccc12)C(=O)N[C@@H](Cc1ccccc1)C(=O)N[C@@H](CCC(N)=O)C(=O)N[C@@H](CC(N)=O)C(=O)N[C@@H](CCCNC(=N)N)C(=O)N[C@@H](CCCNC(=N)N)C(=O)N[C@@H](CCSC)C(=O)N[C@@H](CCCCN)C(=O)N[C@@H](Cc1c[nH]c2ccccc12)C(=O)N[C@@H](CCCCN)C(=O)N[C@@H](CCCCN)C(=O)N[C@@H](CSCC(=O)NCC(=O)N[C@@H](CC(N)=O)C(=O)N[C@@H](CC(N)=O)C(=O)N[C@@H](CCCNC(=N)N)C(=O)N1CCC[C@H]1C(=O)N[C@H](C(=O)N[C@@H](Cc1ccc(O)cc1)C(=O)N[C@H](C(=O)N1CCC[C@H]1C(=O)N[C@@H](CCC(N)=O)C(=O)N1CCC[C@H]1C(=O)N[C@@H](CCCNC(=N)N)C(=O)N1CCC[C@H]1C(=O)N1CCC[C@H]1C(=O)N[C@@H](Cc1c[nH]cn1)C(=O)N1CCC[C@H]1C(=O)N[C@@H](CCCNC(=N)N)C(=O)N[C@@H](CC(C)C)C(=O)O)[C@@H](C)CC)C(C)C)C(=O)O [SEQ ID NO. 95] | 8 (≈ 1.78 µM) | 8 |  | 
CC[C@H](C)[C@H](NC(=O)[C@H](CCCCN)NC(=O)[C@@H](NC(=O)[C@H](CCC(N)=O)NC(=O)[C@@H](N)CCCNC(=N)N)[C@@H](C)CC)C(=O)N[C@@H](Cc1c[nH]c2ccccc12)C(=O)N[C@@H](Cc1ccccc1)C(=O)N[C@@H](CCC(N)=O)C(=O)N[C@@H](CC(N)=O)C(=O)N[C@@H](CCCNC(=N)N)C(=O)N[C@@H](CCCNC(=N)N)C(=O)N[C@@H](CCSC)C(=O)N[C@@H](CCCCN)C(=O)N[C@@H](Cc1c[nH]c2ccccc12)C(=O)N[C@@H](CCCCN)C(=O)N[C@@H](CCCCN)C(=O)N[C@@H](CSCC(=O)NCC(=O)N[C@@H](CCCCN)C(=O)N1CCC[C@H]1C(=O)N[C@@H](CCCNC(=N)N)C(=O)N1CCC[C@H]1C(=O)N[C@@H](Cc1ccc(O)cc1)C(=O)N[C@@H](CO)C(=O)N1CCC[C@H]1C(=O)N[C@@H](CCCNC(=N)N)C(=O)N1CCC[C@H]1C(=O)N[C@H](C(=O)N[C@@H](CO)C(=O)N[C@@H](Cc1c[nH]cn1)C(=O)N1CCC[C@H]1C(=O)N[C@@H](CCCNC(=N)N)C(=O)N1CCC[C@H]1C(=O)N[C@H](C(=O)N[C@@H](CCCNC(=N)N)C(=O)N[C@H](C(=O)O)C(C)C)[C@@H](C)CC)[C@@H](C)O)C(=O)O [SEQ ID NO. 97] | 1 (≈ 0.218 µM) |  |  | 
CC[C@H](C)[C@H](NC(=O)[C@H](CCCCN)NC(=O)[C@@H](NC(=O)[C@H](CCC(N)=O)NC(=O)[C@@H](N)CCCNC(=N)N)[C@@H](C)CC)C(=O)N[C@@H](Cc1c[nH]c2ccccc12)C(=O)N[C@@H](Cc1ccccc1)C(=O)N[C@@H](CCC(N)=O)C(=O)N[C@@H](CC(N)=O)C(=O)N[C@@H](CCCNC(=N)N)C(=O)N[C@@H](CCCNC(=N)N)C(=O)N[C@@H](CCSC)C(=O)N[C@@H](CCCCN)C(=O)N[C@@H](Cc1c[nH]c2ccccc12)C(=O)N[C@@H](CCCCN)C(=O)N[C@@H](CCCCN)C(=O)N[C@@H](CSCC(=O)N[C@H](C(=O)N[C@@H](CC(=O)O)C(=O)N[C@@H](CCCCN)C(=O)NCC(=O)N[C@@H](CO)C(=O)N[C@@H](Cc1ccc(O)cc1)C(=O)N[C@@H](CC(C)C)C(=O)N1CCC[C@H]1C(=O)N[C@@H](CCCNC(=N)N)C(=O)N1CCC[C@H]1C(=O)N[C@H](C(=O)N1CCC[C@H]1C(=O)N1CCC[C@H]1C(=O)N[C@@H](CCCNC(=N)N)C(=O)N1CCC[C@H]1C(=O)N[C@H](C(=O)N[C@@H](Cc1ccc(O)cc1)C(=O)N[C@@H](CC(N)=O)C(=O)N[C@@H](CCCNC(=N)N)C(=O)N[C@@H](CC(N)=O)C(N)=O)[C@@H](C)CC)[C@@H](C)O)C(C)C)C(=O)O [SEQ ID NO. 99] |  | 32 |  | 
CC[C@H](C)[C@H](NC(=O)[C@H](CCCNC(=N)N)NC(=O)[C@H](CCCNC(=N)N)NC(=O)[C@@H]1CCCN1C(=O)[C@@H]1CCCN1C(=O)[C@H](CCCNC(=N)N)NC(=O)[C@@H]1CCCN1C(=O)[C@H](CCCNC(=N)N)NC(=O)[C@@H]1CCCN1C(=O)[C@H](CC(C)C)NC(=O)[C@H](Cc1ccc(O)cc1)NC(=O)[C@@H]1CCCN1C(=O)[C@@H]1CCCN1C(=O)[C@H](CCCCN)NC(=O)[C@H](CC(=O)O)NC(=O)[C@@H](NC(=O)CSC[C@H](NC(=O)[C@H](CCCCN)NC(=O)[C@H](CCCCN)NC(=O)[C@H](Cc1c[nH]c2ccccc12)NC(=O)[C@H](CCCCN)NC(=O)[C@H](CCSC)NC(=O)[C@H](CCCNC(=N)N)NC(=O)[C@H](CCCNC(=N)N)NC(=O)[C@H](CC(N)=O)NC(=O)[C@H](CCC(N)=O)NC(=O)[C@H](Cc1ccccc1)NC(=O)[C@H](Cc1c[nH]c2ccccc12)NC(=O)[C@@H](NC(=O)[C@H](CCCCN)NC(=O)[C@@H](NC(=O)[C@H](CCC(N)=O)NC(=O)[C@@H](N)CCCNC(=N)N)[C@@H](C)CC)[C@@H](C)CC)C(=O)O)C(C)C)C(=O)N[C@@H](Cc1ccc(O)cc1)C(=O)N[C@@H](CC(N)=O)C(=O)N[C@@H](CCCNC(=N)N)C(N)=O [SEQ ID NO. 101] | 4 (≈ 0.837 µM) |  | 32 (≈ 6.69 µM) | 
CC[C@H](C)[C@H](NC(=O)[C@H](CCCCN)NC(=O)[C@@H](NC(=O)[C@H](CCC(N)=O)NC(=O)[C@@H](N)CCCNC(=N)N)[C@@H](C)CC)C(=O)N[C@@H](Cc1c[nH]c2ccccc12)C(=O)N[C@@H](Cc1ccccc1)C(=O)N[C@@H](CCC(N)=O)C(=O)N[C@@H](CC(N)=O)C(=O)N[C@@H](CCCNC(=N)N)C(=O)N[C@@H](CCCNC(=N)N)C(=O)N[C@@H](CCSC)C(=O)N[C@@H](CCCCN)C(=O)N[C@@H](Cc1c[nH]c2ccccc12)C(=O)N[C@@H](CCCCN)C(=O)N[C@@H](CCCCN)C(=O)N[C@@H](CSCC(=O)NCC(=O)N[C@@H](CCCCN)C(=O)N1CCC[C@H]1C(=O)N[C@@H](CCCNC(=N)N)C(=O)N1CCC[C@H]1C(=O)N[C@@H](Cc1ccc(O)cc1)C(=O)N[C@@H](CO)C(=O)N1CCC[C@H]1C(=O)N[C@@H](CCCNC(=N)N)C(=O)N1CCC[C@H]1C(=O)N[C@H](C(=O)N[C@@H](CO)C(=O)N[C@@H](Cc1c[nH]cn1)C(=O)N1CCC[C@H]1C(=O)N[C@@H](CCCNC(=N)N)C(=O)N1CCC[C@H]1C(=O)N[C@H](C(=O)N[C@@H](CCCNC(=N)N)C(=O)N[C@H](C(=O)O)C(C)C)[C@@H](C)CC)[C@@H](C)O)C(=O)O [compound 97] |  |  | 16 (≈ 3.49 µM) | 
CC[C@H](C)[C@H](NC(=O)[C@H](CCCCN)NC(=O)[C@@H](NC(=O)[C@H](CCC(N)=O)NC(=O)[C@@H](N)CCCNC(=N)N)[C@@H](C)CC)C(=O)N[C@@H](Cc1c[nH]c2ccccc12)C(=O)N[C@@H](Cc1ccccc1)C(=O)N[C@@H](CCC(N)=O)C(=O)N[C@@H](CC(N)=O)C(=O)N[C@@H](CCCNC(=N)N)C(=O)N[C@@H](CCCNC(=N)N)C(=O)N[C@@H](CCSC)C(=O)N[C@@H](CCCCN)C(=O)N[C@@H](Cc1c[nH]c2ccccc12)C(=O)N[C@@H](CCCCN)C(=O)N[C@@H](CCCCN)C(=O)N[C@@H](CSCC(=O)N[C@H](C(=O)N[C@@H](CC(=O)O)C(=O)N[C@@H](CCCCN)C(=O)NCC(=O)N[C@@H](CO)C(=O)N[C@@H](Cc1ccc(O)cc1)C(=O)N[C@@H](CC(C)C)C(=O)N1CCC[C@H]1C(=O)N[C@@H](CCCNC(=N)N)C(=O)N1CCC[C@H]1C(=O)N[C@H](C(=O)N1CCC[C@H]1C(=O)N1CCC[C@H]1C(=O)N[C@@H](CCCNC(=N)N)C(=O)N1CCC[C@H]1C(=O)N[C@H](C(=O)N[C@@H](Cc1ccc(O)cc1)C(=O)N[C@@H](CC(N)=O)C(=O)N[C@@H](CCCNC(=N)N)C(=O)N[C@@H](CC(N)=O)C(N)=O)[C@@H](C)CC)[C@@H](C)O)C(C)C)C(=O)O [compound 99] |  |  | 32 (≈ 6.77 µM) | 4 (≈ 0.846 µM)

Reference: US8686113B2 (priority 2009, dated 2014)
